Where two headings read alike, the source gives them in different places.
Experiments:
SCD1 [1] = target: T1, SCD1 (Homo sapiens (Human), UniProt O00767); experiment: SCD1 13C-palmitic acid assay in A431 cells; format: cell-based; details: read-out: A431 cells 13C-PA IC50
SCD1 [2] = target: SCD1 (Rattus norvegicus (Rat), UniProt P07308); experiment: SCD1 enzymatic assay in rat liver microsomes (RLM); format: biochemical
SCD1 [3] = target: T1, SCD1; experiment: SCD1 14C-palmitate assay in A431 cells; format: cell-based; details: read-out: A431 cells 14C-PA IC50

By UniProt entry, the sequences of proteins in these tests, tags left out.
UniProt O00767, whole entry: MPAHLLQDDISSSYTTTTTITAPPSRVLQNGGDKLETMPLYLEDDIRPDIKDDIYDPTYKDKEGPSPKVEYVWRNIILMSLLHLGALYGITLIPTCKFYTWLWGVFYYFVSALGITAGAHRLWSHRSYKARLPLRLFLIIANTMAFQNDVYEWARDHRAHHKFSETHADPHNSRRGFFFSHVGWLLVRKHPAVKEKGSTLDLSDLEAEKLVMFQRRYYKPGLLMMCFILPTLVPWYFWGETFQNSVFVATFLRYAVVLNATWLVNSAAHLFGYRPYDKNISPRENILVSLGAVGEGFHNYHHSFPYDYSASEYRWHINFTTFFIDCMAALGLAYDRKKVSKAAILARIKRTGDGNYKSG
UniProt P07308, whole entry: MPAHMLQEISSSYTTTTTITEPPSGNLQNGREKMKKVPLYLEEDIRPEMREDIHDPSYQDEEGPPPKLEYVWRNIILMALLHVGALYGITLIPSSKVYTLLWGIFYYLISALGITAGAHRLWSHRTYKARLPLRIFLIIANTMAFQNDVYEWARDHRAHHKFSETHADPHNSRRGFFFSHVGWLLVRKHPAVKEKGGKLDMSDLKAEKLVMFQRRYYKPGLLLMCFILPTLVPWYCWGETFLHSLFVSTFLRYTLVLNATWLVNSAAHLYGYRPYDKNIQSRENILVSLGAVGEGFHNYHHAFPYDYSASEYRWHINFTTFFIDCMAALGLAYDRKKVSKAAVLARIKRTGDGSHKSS

With `COc1ccc(-c2ccc(N3CCC(c4noc5ccc(F)cc45)CC3)nn2)cn1` the IC50 (SCD1 [1]) was 4 nM, the “% Inh.@ 1 μM” value (SCD1 [2]) was 100% and the IC50 (SCD1 [2]) was 7 nM.

With `OCc1cn(-c2ccc(N3CCC(c4noc5ccc(F)cc45)CC3)nn2)cn1` the IC50 (SCD1 [3]) was 40 nM, the “% Inh.@ 1 μM” value (SCD1 [2]; 1 μM test compound, rat liver microsomes) was 96% and the IC50 (SCD1 [2]; rat liver microsomes) was 52 nM.

Source: US9102669B2, “Substituted piperidinyl-pyridazinyl derivatives useful as SCD 1 inhibitors” (Janssen Pharmaceutica NV, priority 2011, dated 2015)
